Source: ChEMBL document CHEMBL4270587, “Difuran-substituted quinoxalines as a novel class of PI3Kα H1047R mutant inhibitors: Synthesis, biological evaluation and structure-activity relationship” (Eur J Med Chem, 2018)

Key:
Homo sapiens [1] = species on record: Homo sapiens; assay: Selectivity index, ratio of EC50 for inhibition of recombinant full length PI3K p85alpha/p110alpha H1047R mutant (unknown origin) expressed in baculovirus infected sf9 cells to EC50 for inhibition of recombinant full length PI3K p110alpha/p85alpha (unknown origin) expressed in baculovirus infected sf9 cells
Homo sapiens [2] = species on record: Homo sapiens; assay: Selectivity ratio of EC50 for inhibition of PI3K-beta (unknown origin) to EC50 for inhibition of recombinant full length PI3K p110alpha/p85alpha (unknown origin) expressed in baculovirus infected sf9 cells
Homo sapiens [3] = species on record: Homo sapiens; assay: Selectivity ratio of EC50 for inhibition of PI3K-gamma (unknown origin) to EC50 for inhibition of recombinant full length PI3K p110alpha/p85alpha (unknown origin) expressed in baculovirus infected sf9 cells
Homo sapiens [4] = species on record: Homo sapiens; assay: Selectivity ratio of EC50 for inhibition of PI3K-delta (unknown origin) to EC50 for inhibition of recombinant full length PI3K p110alpha/p85alpha (unknown origin) expressed in baculovirus infected sf9 cells

Fc1ccccc1-c1cc2nc(-c3ccco3)c(-c3ccco3)nc2cc1Br
Ratio EC50 (Homo sapiens [1]): 1.47 | Ratio EC50 (Homo sapiens [2]): > 40 | Ratio EC50 (Homo sapiens [3]): > 100 | Ratio EC50 (Homo sapiens [4]): > 100

Clc1cc(Cl)c2nc(-c3ccco3)c(-c3ccco3)nc2c1
Ratio EC50 (Homo sapiens [1]): 1.39

Brc1ccc2nc(-c3ccco3)c(-c3ccco3)nc2c1
Ratio EC50 (Homo sapiens [1]): 1.21

FC(F)(F)c1ccccc1-c1ccc2nc(-c3ccco3)c(-c3ccco3)nc2c1
Ratio EC50 (Homo sapiens [1]): 0.92

c1ccc(-c2ccc3nc(-c4ccco4)c(-c4ccco4)nc3c2)cc1
Ratio EC50 (Homo sapiens [1]): 3.83

FC(F)(F)c1ccccc1-c1cc2nc(-c3ccco3)c(-c3ccco3)nc2cc1Br
Ratio EC50 (Homo sapiens [1]): 1.74
